Test results as given in patent publication US20110287934A1, “HERBICIDAL COMPOSITION FOR TOLERANT OR RESISTANT RICE CROPS” (priority 2010, published 2011).

System: rice (GA-tolerant)
Assay: Greenhouse trial, crop plant compatibility in rice (GA-tolerant)
Assay type: in vivo
Conditions: 25 g of ai/ha; post-emergence, 1-3-leaf stage; scoring 15 days after application (Table 6)
Experimental: The trials were carried out under greenhouse conditions (test pots, diameter 8 cm, spray application using 300 l of water/hectare, 2 repetitions, 6 to 8 plants per pot, permanently flooded).
Scoring was by visual comparison of the treated with the untreated controls (0-100% scale, 13-15 days after the application) (see details in the respective tables).

With oxadiargyl [C49] the “Damage to crop plants (%) rice (GA-tolerant) (≦15-20% acceptable)” value was 15%.
